PMC3264873 (Pharmaceutical Research, 2011)

Chains of the proteins cited; added tags and fusions are not shown. Lines headed by an entry give the natural chain unless they say otherwise; changes in a name come on top.
UniProt Q9Y6L6: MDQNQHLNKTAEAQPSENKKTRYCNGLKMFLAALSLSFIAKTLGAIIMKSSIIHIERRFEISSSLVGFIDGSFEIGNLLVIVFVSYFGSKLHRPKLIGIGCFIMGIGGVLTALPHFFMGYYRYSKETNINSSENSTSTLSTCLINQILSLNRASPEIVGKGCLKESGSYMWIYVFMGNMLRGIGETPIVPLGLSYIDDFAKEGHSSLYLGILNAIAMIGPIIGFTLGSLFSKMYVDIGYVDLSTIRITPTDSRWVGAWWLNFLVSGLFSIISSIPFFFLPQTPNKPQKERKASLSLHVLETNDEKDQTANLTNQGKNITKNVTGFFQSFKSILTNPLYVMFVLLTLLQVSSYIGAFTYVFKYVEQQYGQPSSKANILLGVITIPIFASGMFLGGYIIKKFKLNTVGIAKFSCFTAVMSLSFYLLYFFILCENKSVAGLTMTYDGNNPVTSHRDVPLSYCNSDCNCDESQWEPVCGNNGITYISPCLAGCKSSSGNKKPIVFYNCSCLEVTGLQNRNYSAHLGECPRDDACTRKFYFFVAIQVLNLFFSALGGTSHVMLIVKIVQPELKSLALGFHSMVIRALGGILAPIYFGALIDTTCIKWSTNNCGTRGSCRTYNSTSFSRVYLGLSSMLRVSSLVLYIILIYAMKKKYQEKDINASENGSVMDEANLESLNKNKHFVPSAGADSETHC

Target: OATP1B1 (Homo sapiens, UniProt Q9Y6L6)
Test: Screening for inhibition of OATP1B1-mediated estradiol-17β-glucuronide uptake
Conditions: 20 μM test compound

- Classification as OATP1B1 inhibitor (more than 50% inhibition of E17βG uptake): inhibitors
SMILES: OCCN(CCO)c1nc(N2CCCCC2)c2nc(N(CCO)CCO)nc(N3CCCCC3)c2n1 [Dipyridamole]
